Results as given in publication PMC4961704, “Synthesis and Biological Evaluation of Thiophene-Based Cannabinoid Receptor Type 2 Radiotracers for PET Imaging” (Frontiers in Neuroscience, 2016).

Sequences of proteins named here, by UniProt entry; tags and fusion partners are left off.
UniProt P34972, whole entry: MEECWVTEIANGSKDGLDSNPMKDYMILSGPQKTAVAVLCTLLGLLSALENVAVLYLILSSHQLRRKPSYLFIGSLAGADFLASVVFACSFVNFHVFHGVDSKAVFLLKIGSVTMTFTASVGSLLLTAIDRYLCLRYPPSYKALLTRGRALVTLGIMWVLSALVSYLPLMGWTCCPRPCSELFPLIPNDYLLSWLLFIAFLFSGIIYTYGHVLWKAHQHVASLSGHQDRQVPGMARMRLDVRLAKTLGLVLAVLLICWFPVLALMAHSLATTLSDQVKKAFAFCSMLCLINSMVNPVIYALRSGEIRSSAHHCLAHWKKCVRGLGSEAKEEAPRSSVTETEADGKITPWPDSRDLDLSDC
UniProt P21554, whole entry: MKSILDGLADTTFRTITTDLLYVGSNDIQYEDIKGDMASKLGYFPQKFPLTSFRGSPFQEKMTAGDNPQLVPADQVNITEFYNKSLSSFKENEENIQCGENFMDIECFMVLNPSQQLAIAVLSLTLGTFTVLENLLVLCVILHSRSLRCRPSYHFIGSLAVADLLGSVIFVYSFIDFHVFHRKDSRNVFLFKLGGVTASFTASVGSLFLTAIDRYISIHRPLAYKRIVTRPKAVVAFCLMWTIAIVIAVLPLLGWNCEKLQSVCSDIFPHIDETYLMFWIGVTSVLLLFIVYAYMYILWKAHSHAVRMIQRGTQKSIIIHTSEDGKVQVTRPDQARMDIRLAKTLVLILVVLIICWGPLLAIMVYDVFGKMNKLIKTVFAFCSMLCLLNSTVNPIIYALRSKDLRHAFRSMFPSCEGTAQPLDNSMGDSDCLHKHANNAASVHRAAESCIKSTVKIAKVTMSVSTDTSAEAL

Assays:
[1] = target: T1, hCB2 (Homo sapiens, UniProt P34972); experiment: Competitive in vitro binding assay with [3H]CP-55,940, membranes of CHO-K1 cells stably transfected with hCB2
T1 construct: purchased PerkinElmer; host or cells: CHO-K1 cells stably transfected

[2] = target: T2, hCB1 (Homo sapiens, UniProt P21554); experiment: Competitive in vitro binding assay with [3H]CP-55,940, membranes of CHO-K1 cells stably transfected with hCB1; settings: displacement of [3H]CP-55,940 (1.4 nM), 30°C, 90 min; three independent experiments in triplicate; Cheng-Prusoff
T2 construct: purchased PerkinElmer; host or cells: CHO-K1 cells stably transfected

## COC(=O)c1c(NC(=O)C23CC4CC(CC(O)(C4)C2)C3)sc2c1CCCC2 [AAT-015]
[1]; Ki CB1 versus Ki CB2
  selectivity over CB1: 300 fold
[1]; displacement of [3H]CP-55,940 (1.4 nM), 30°C, 90 min, three independent experiments in triplicate, Cheng-Prusoff
  Ki: 3.3 ± 0.5 nM
[2]
  Ki: 1000 ± 200 nM
